{"source": "patent US10092621B2", "about": "(dated 2018)", "tested_on": "healthy volunteers", "assay": "Phase 1 MAD study: gastric emptying by scintigraphic imaging", "assay_type": "in vivo, human", "note": "Several values for one entry are separate records, joined by “and”; a condition that tells them apart may be missing. Equal values may be shown once."}
{"smiles": "C[C@@H]1CN[C@@H](C2CC2)C(=O)N(C)[C@H](C)C(=O)N[C@H](Cc2ccc(F)cc2)C(=O)NCCCc2ccccc2O1", "note": "[ulimorelin]", "values": [{"measurement": "maximum effect of Emax model, improvement in gastric emptying", "setting": "PK-PD modeling of Cmaxfree versus T50%", "result": "about 50%"}, {"measurement": "improvement in gastric emptying", "setting": "in vivo", "result": "25% and 40%"}]}
